{"source": "patent US8835438B2", "about": "“Method of treating memory/learning dysfunctions caused by schizophrenia with lurasidone” (Sumitomo Dainippon Pharma Co., Ltd., priority 2004, dated 2014)", "system": "memory/learning dysfunctions in the passive avoidance response", "experiment": "Passive avoidance response test, drug administered alone without MK-801", "assay_type": "in vivo, Wistar male rats", "conditions": "drug alone without MK-801, passive avoidance response, rats", "method": "Then, 10 seconds later, a slide door set at the border between the dark box and the light box was opened. Due to the habits of the rats, once the rats entered into the dark box, the slide door was quickly closed. At three seconds after entering into the dark box, an electroconvulsive shock ([…], for 3 seconds) was given to the rats. The period between the time just after the slide door was opened and the time at which the rats entered into the dark box was measured as a step-through latency. […] On Day 2 of the experiment, the testing session was carried out about 24 hours after the training session. […] The procedures of the testing session were carried out in the same manner to the training session except that no electroconvulsive shock was given. The step-through latency at the testing session was measured up to 300 seconds, and the step-through latency over 300 seconds was regarded as 300 seconds. […] The statistical analysis of the % of animals avoiding was done by x^2 test with Bonferroni's correction. The animals were used in a group of 10 to 25 animals per group, and the data was expressed by percentage."}
{"compound": "Cc1cc2c(s1)Nc1ccccc1N=C2N1CCN(C)CC1", "note": "[Olanzapine, olanzapine]", "values": [{"measurement": "Minimum dose to induce memory dysfunction by single application", "value": "3 mg/kg, p.o"}]}
